# Reference: patent US4959393A, “Skin depigmental agent” (priority 1988, dated 1990)
# Assay: in vivo
# Details: mouse
# Procedure: Resorcinol derivatives or hydroquinone for comparison was dissolved in a physiological saline solution, which was subjected to peroral (p.o.), intraperitoneal (i.p.) and subcutaneous (s.c.) dosages against a group of ten ddy male mice. The life or death of the mice before 24 hours was observed. The value of LD50 was calculated according to the Litchfield-Wilcoxom method using the above results.
structure (smiles),measurement,setting,value
"Oc1ccc(O)cc1 [hydroquinone, reference compound]",LD50 at 24 h,ip,144 mg/kg
same,LD50 at 24 h,po,489 mg/kg
same,LD50 at 24 h,sc,339 mg/kg
